The assay has as its target Ferritin light chain (Equus caballus) (UniProt P02791). Kind of assay: qHTS Assay for Identification of Novel General Anesthetics. Note: nearly all actives have a fitted effect of over 20% in size. Conditions: apoferritin/1-aminoanthracene competitive binding, fluorescence; at 77.5 µM (top of the series) unless noted. (In general: qHTS replaces the single test concentration by a dilution series.)

By UniProt entry, the sequences of proteins in these tests, tags left out. Where a name states a change or a piece, a line headed by the entry shows the natural chain unless it says otherwise.
UniProt P02791: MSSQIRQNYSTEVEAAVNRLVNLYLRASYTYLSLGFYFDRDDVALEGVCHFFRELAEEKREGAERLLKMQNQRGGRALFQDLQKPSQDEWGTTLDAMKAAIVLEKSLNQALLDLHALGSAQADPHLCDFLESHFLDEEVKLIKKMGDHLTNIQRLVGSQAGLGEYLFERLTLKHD

The text below walks through data of PubChem BioAssay AID485281 (National Center for Advancing Translational Sciences (NCATS), 2010).

Values joined by “and” are separate entries in the source; they are usually repeats but may differ in a detail not shown here. Identical values can stand only once. Only a part is listed here, and it is no random draw. Inconclusive results are not listed. Active and inactive are the calls of the source. Calls come from the whole dose curve; as a rule, active = well fitted inhibition curve with a large enough effect; inconclusive = small, poorly fitted or top-dose-only effect; inactive = no such curve, though single readings can be large or run the other way.
% is set by controls: 0 for no effect and ±100 for the full control effect.

For the compound `CC(C)(C)C(=O)NC(Sc1ncccn1)C(Cl)(Cl)Cl` (stereo unspecified), the activity change, negative = displacement was inactive: -7.88%.
Turning to `Clc1n[nH]nc1-c1nn[nH][15n]1`, the activity change, negative = displacement was inactive: -4.53%.
In the case of `CCOP(=O)(NC(=NC(C)c1ccccc1)NC(C)c1ccccc1)OCC` (stereo unspecified) it was inactive: -8.92%; in that of `CCC1=CC2Cc3nc4ccc(Cl)cc4c(N)c3C(C1)C2` (stereo unspecified), inactive: -14.4%.
In the case of `O=P1(Nc2ccccn2)COc2ccccc2OC1` it was inactive: 4.73%; in that of `CCOP(=O)(Nc1ccc(C)cn1)OCC`, inactive: -0.0129%.
With `CN(C(=O)Cc1ccc(Cl)c(Cl)c1)[C@@H]1CCCC[C@H]1N1CCCC1`, the activity change, negative = displacement was inactive: -2.27% and inactive: -9.08%.
In the case of `CC(C)/C=N\N=C(\N)N[N+](=O)[O-]` it was inactive: -7.64%; in that of `O=[As](O)(c1ccccc1Br)c1ccccc1Br`, inactive: 9.97%; in that of `CN(C)C1(CNC(=O)c2ccc(S(C)(=O)=O)cc2)CCCCC1`, inactive: 0.559%.
For `O=C(/C=C/c1ccccc1)OC1CN2CCC1CC2` (stereo unspecified), the activity change, negative = displacement is inactive: -7.19%.
Turning to `Cc1ccc(C(=O)OC2CN3CCC2CC3)cc1` (stereo unspecified), the activity change, negative = displacement was inactive: -10.8%.
As to `Cc1nn(-c2ccccc2)c2c1P(=O)(N1CCOCC1)N(C)C(c1ccccc1)=N2` (stereo unspecified), the activity change, negative = displacement was inactive: -0.391%.
In the case of `Nc1cccc([As](=O)(O)c2ccccc2)c1` it was inactive: 2.8%; in that of `Cc1ccc(OCC(=O)OC2CN3CCC2CC3)cc1` (stereo unspecified), inactive: 3.11%.
In the case of `O=[As](O)(c1cccs1)c1cccs1` it was inactive: -4.56%.
In the case of `O=P1(Nc2ccc(Br)cn2)COc2ccccc2OC1` it was inactive: -15.6%; in that of `O=P1(Nc2ncccn2)COc2ccccc2OC1`, inactive: 5.75%.
Consider `CN(C(=O)Cc1ccccc1)[C@H]1CC[C@@]2(CCCO2)C[C@@H]1N1CCCC1`, for which the activity change, negative = displacement was inactive: -2.78%.
In the case of `C[C@H]1OP(=O)(Oc2ccccc2)[C@H](O)[C@H](O)[C@H]1N=[N+]=[N-]` (stereo partly specified) it was inactive: 1.86%.
For `O=P(Nc1nc2ccccc2s1)(c1ccccc1)c1ccccc1`, the activity change, negative = displacement was inactive: -0.919%.
In the case of `CN(C)C1(CNC(=O)c2ccc(Cl)c(S(N)(=O)=O)c2)CCCCC1` it was inactive: -1.37%; in that of `O=P(Nc1ccccn1)(c1ccc(Br)cc1)c1ccc(Br)cc1`, inactive: -10.9%.
In the case of `O=C(OC1CN2CCC1CC2)c1cccc(Cl)c1` (stereo unspecified) it was inactive: 2.02%; in that of `C(Cc1nn[nH]n1)Cc1nn[nH]n1`, inactive: 37.4%; in that of `Nc1ccc([As](=O)(O)c2ccc([N+](=O)[O-])cc2)cc1`, inactive: 0.844%.
In the case of `O=[As](O)(c1ccccc1)c1ccc(O)cc1` it was inactive: 2.05%; in that of `CC(=O)NC(SC(=S)N(C)C)C(Cl)(Cl)Cl` (stereo unspecified), inactive: -2.52%; in that of `O=[N+]([O-])c1ncn(CCn2cnc([N+](=O)[O-])n2)n1`, inactive: -7.99%.
As to `O=[N+]([O-])c1ccc(O)c(/C=N/Nc2ccc([N+](=O)[O-])cc2[N+](=O)[O-])c1`, the activity change, negative = displacement was inactive: -11.3%.
In the case of `c1nnnn1CCn1cnnn1` it was inactive: -5.16%; in that of `CCC(C)(OOC(C)(C)C)OOC(C)(C)C`, inactive: -4.83%.
In the case of `O=P(Nc1nccs1)(c1ccccc1)c1ccccc1` it was inactive: -10.7%; in that of `CC(C)C(=O)NC(Sc1ccccc1)C(Cl)(Cl)Cl` (stereo unspecified), inactive: -0.91%.
In the case of `CCOc1ccc(C2=NCC(CBr)S2)cc1` (stereo unspecified) it was inactive: -21.1%.
`CC(=O)Nc1ccc(Oc2c([N+](=O)[O-])cc([N+](=O)[O-])cc2[N+](=O)[O-])cc1`: the activity change, negative = displacement is inactive: -18.5%.
Take `CC(=O)Nc1ccc([As](=O)(O)O)c(O)c1`: the activity change, negative = displacement was inactive: 6.82%.
As for `C[C@H]1OP(=O)(Oc2ccccc2)C[C@@H]2O[C@@H]21` (stereo partly specified), the activity change, negative = displacement was inactive: -9.86%.
In the case of `C[C@@H]1C=CCP(=O)(Oc2ccccc2)O1` (stereo partly specified) it was inactive: -5.76%; in that of `CC(=O)c1ccc(N2CC2c2ccncc2)cc1` (stereo unspecified), inactive: -8.6%.
Take `Cc1ccc(NP(=O)(Oc2cccc(C)c2)Oc2cccc(C)c2)nc1`: the activity change, negative = displacement is inactive: 11.8%.
In the case of `c1ccc(-c2nn[nH]n2)c(-c2nn[nH]n2)c1` it was inactive: 2.53%; in that of `O=C(NC1CCS(=O)(=O)C1)NP(=S)(Oc1ccccc1)Oc1ccccc1` (stereo unspecified), inactive: -15.2%.
For `CCNC(=S)/N=C(\N)N[N+](=O)[O-]`, the activity change, negative = displacement is inactive: -12%.
In the case of `O=c1c2cc([N+](=O)[O-])ccc2[nH]c2c([N+](=O)[O-])cc([N+](=O)[O-])cc12` it was inactive: -22.6%.
In the case of `CN(C)C(=O)Oc1noc2ccccc12` it was inactive: 1.8%; in that of `Cc1ccccc1OP(=O)(Nc1ccccn1)Oc1ccccc1C`, inactive: -6.87%; in that of `CCC(=O)N1C2C3N(C(=O)CC)C1C1N(C(=O)CC)C(C(N1C(=O)CC)N3C(=O)CC)N2C(=O)CC`, inactive: -8.91%.
In the case of `O=C(OC1CN2CCC1CC2)c1ccccc1` (stereo unspecified) it was inactive: 5.69%.
In the case of `CC(=O)NC(SC(=S)N(CC(C)C)CC(C)C)C(Cl)(Cl)Cl` (stereo unspecified), the activity change, negative = displacement was inactive: -5.94%.
In the case of `Cc1ccc(OP(=O)(Nc2ccccn2)Oc2ccc(C)cc2)cc1` it was inactive: -5.36%.
